{"source": "patent US20260022352A1", "about": "“COMPOSITIONS AND METHODS FOR PURIFYING […]” (North Carolina State University, priority 2023, published 2026)", "key": {"[1]": {"target": "VSV-G-pseudo-typed lentiviral vector particles (vesicular stomatitis virus) (UniProt P03522)", "assay": "CaptureSelect Lenti VSVG Affinity Matrix (agarose), clarified HEK293 CCF"}, "[2]": {"target": "VSV-G-pseudo-typed lentiviral vector particles (vesicular stomatitis virus) (UniProt P03522)", "assay": "breakthrough on peptide-Poros column, clarified HEK293 CCF, RT 1 min, RT-qPCR"}, "[3]": {"target": "VSV-G-pseudo-typed lentiviral vector particles (vesicular stomatitis virus) (UniProt P03522)", "assay": "breakthrough on peptide-Poros column, clarified HEK293 CCF, RT 2 min, RT-qPCR"}, "[4]": {"target": "VSV-G-pseudo-typed lentiviral vector particles (vesicular stomatitis virus) (UniProt P03522)", "assay": "ToyoPearl 750 resin (PMMA), clarified HEK293 CCF, RT 1 min"}, "[5]": {"target": "VSV-G-pseudo-typed lentiviral vector particles (vesicular stomatitis virus) (UniProt P03522)", "assay": "Eshmuno 800-50 resin (PVE), clarified HEK293 CCF, RT 1 min"}, "[6]": {"target": "VSV-G-pseudo-typed lentiviral vector particles (vesicular stomatitis virus) (UniProt P03522)", "assay": "ToyoPearl 650 resin (PMMA), clarified HEK293 CCF, RT 1 min"}, "[7]": {"target": "VSV-G-pseudo-typed lentiviral vector particles (vesicular stomatitis virus) (UniProt P03522)", "assay": "Poros resin (PS), clarified HEK293 CCF, RT 1 min"}, "[8]": {"target": "VSV-G-pseudo-typed lentiviral vector particles (vesicular stomatitis virus) (UniProt P03522)", "assay": "50 purification cycles on Poros resin with 0.5 M NaOH CIP between"}, "[9]": {"target": "VSV-G-pseudo-typed lentiviral vector particles (vesicular stomatitis virus) (UniProt P03522)", "assay": "Poros resin, G spacer, clarified HEK293 CCF, RT 1 min"}}, "data": [{"substance": "Camelid Antibody (VHH) ligand of CaptureSelect™ Lenti VSVG Affinity Matrix", "values": [{"measurement": "DBC10% (TU/mL of resin)", "setting": "[1]", "value": "2.3e+08"}]}, {"substance": "FEKISNAE (peptide)", "values": [{"measurement": "DBC10%", "setting": "[2]", "value": "7.03e+09", "unit": "vg/mL"}, {"measurement": "DBC10%", "setting": "[3]", "value": "5.84e+09", "unit": "vg/mL"}]}, {"substance": "GKEAAFAA (peptide)", "values": [{"measurement": "DBC10%", "setting": "[2]", "value": "1.91e+10", "unit": "vg/mL"}, {"measurement": "DBC10%", "setting": "[3]", "value": "2.69e+10", "unit": "vg/mL"}, {"measurement": "DBC10% (TU/mL of resin)", "setting": "[4]", "value": "5e+09"}, {"measurement": "DBC10% (TU/mL of resin)", "setting": "[5]", "value": "1.9e+09"}, {"measurement": "DBC10% (TU/mL of resin)", "setting": "[6]", "value": "4.3e+09"}, {"measurement": "DBC10% (TU/mL of resin)", "setting": "[7]", "value": "4.5e+09"}, {"measurement": "DBC10% (TU per mL of resin)", "setting": "[8]", "value": "2e+09"}]}, {"substance": "GKEAAFAA-G (peptide)", "values": [{"measurement": "DBC10% (TU per mL of resin)", "setting": "[9]", "value": "1.8e+09"}]}]}
